These results are taken from patent US7977370B2, “(Hetero)aryl cyclohexane derivatives” (dated 2011).

Chains of the proteins cited; added tags and fusions are not shown.
UniProt P35372, whole entry: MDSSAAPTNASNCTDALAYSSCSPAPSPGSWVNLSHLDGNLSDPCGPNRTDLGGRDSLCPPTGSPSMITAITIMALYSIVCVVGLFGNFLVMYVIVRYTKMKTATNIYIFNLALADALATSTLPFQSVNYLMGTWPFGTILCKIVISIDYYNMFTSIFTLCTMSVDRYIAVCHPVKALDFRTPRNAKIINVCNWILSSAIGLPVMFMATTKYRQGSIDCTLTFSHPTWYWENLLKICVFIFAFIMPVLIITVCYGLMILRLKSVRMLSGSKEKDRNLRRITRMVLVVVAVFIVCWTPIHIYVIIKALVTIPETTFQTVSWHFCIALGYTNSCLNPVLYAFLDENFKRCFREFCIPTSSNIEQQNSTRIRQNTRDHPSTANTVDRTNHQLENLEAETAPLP
UniProt P41146, whole entry: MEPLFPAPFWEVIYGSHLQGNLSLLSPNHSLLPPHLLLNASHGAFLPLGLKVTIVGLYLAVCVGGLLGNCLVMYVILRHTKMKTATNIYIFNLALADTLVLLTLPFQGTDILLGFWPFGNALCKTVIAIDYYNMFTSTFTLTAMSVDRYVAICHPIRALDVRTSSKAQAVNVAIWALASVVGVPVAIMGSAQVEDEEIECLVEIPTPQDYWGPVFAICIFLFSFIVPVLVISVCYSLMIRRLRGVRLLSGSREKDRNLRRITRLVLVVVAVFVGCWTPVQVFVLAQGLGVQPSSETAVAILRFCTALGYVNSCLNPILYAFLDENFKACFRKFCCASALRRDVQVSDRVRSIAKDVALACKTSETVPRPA
UniProt P41145, whole entry: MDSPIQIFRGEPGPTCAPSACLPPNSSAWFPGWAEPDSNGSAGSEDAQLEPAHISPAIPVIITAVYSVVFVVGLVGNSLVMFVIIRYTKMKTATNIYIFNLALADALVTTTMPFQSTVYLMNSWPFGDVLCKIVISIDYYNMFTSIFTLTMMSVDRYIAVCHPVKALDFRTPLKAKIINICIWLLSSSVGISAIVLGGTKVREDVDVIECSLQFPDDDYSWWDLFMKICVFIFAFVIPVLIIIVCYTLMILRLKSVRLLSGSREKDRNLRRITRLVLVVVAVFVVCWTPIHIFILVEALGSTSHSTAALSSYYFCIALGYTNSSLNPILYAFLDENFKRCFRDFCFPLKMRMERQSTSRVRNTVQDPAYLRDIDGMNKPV

For one test, the target named is human μ-opiate receptor (Homo sapiens, UniProt P35372). As to conditions: for Ki: read-out: Ki (μ) Mean, comparison table; for Ki (μ)/Ki (ORL1): ratio, comparison table Q=(hetero)aryl vs Q=H.
The next test deals with ORL 1-receptor (Homo sapiens, UniProt P41146). Briefly: ORL 1 receptor binding assay with 3H-nociceptin/orphanin FQ, membranes of recombinant CHO-ORL 1 cells. As to conditions: read-out: Ki (ORL1) Mean; comparison table.
Another test concerns the target kappa-opioid receptor (Homo sapiens, UniProt P41145). Particulars: for Ki: read-out: Ki (kappa) Mean, comparison table.

Regarding `Cc1c(C2CCC(c3ccccc3)(N(C)C)CC2)[nH]c2ccccc12` (single isomer, unassigned) [Comparison 2], the values for the Ki at human μ-opiate receptor, on ORL 1-receptor and on kappa-opioid receptor were 0.4 nM, 0.9 nM and 1.2 nM, respectively.
In the case of `Cc1c(C2CCC(c3ccccc3)(N(C)C)CC2)oc2ccccc12` (centres unmarked), on human μ-opiate receptor, the “Ki (μ)/Ki (ORL1)” value is 0.1 and the Ki worked out at 5 nM. On ORL 1-receptor, the Ki worked out at 39 nM. The “Inhibition (kappa) at [1 μM]” value on kappa-opioid receptor (test concentration 1 μM, printed in Ki (kappa) column) is listed as 31%.
`CN(C)C1(c2cccs2)CCC(c2[nH]c3ccccc3c2CCc2ccncc2)CC1` (centres unmarked): the “Ki (μ)/Ki (ORL1)” value on human μ-opiate receptor is given as 1.2. Also, the Ki stood at 197 nM at human μ-opiate receptor, 153 nM on ORL 1-receptor and 153 nM at kappa-opioid receptor. For the same compound, the “Ki (kappa)/Ki (ORL1)” value at kappa-opioid receptor (ratio, comparison table Q=(hetero)aryl vs Q=H) turned out to be 1.0.
In the case of `Cc1c(C2CCC(c3ccccc3)(N(C)C)CC2)[nH]c2ccccc12` (single isomer, unassigned) [Comparison 3], the Ki amounted to 13 nM at human μ-opiate receptor and 14 nM on ORL 1-receptor.

The term Ki denotes a dissociation constant, usually derived from enzyme kinetics or from competition with a known ligand.
